The target of assay [1] is T1, hP2X7R (Homo sapiens, UniProt Q99572). To be noted: ethidium bromide accumulation, reported previously ref 45; cited from earlier work.
Assay [2] has as its target T1, hP2X7R. As to the kind of experiment: Ethidium bromide accumulation in hP2X7R-expressing HEK293 cells.

The chains behind the UniProt entries cited, without tags or fusion partners.
UniProt Q99572, whole entry: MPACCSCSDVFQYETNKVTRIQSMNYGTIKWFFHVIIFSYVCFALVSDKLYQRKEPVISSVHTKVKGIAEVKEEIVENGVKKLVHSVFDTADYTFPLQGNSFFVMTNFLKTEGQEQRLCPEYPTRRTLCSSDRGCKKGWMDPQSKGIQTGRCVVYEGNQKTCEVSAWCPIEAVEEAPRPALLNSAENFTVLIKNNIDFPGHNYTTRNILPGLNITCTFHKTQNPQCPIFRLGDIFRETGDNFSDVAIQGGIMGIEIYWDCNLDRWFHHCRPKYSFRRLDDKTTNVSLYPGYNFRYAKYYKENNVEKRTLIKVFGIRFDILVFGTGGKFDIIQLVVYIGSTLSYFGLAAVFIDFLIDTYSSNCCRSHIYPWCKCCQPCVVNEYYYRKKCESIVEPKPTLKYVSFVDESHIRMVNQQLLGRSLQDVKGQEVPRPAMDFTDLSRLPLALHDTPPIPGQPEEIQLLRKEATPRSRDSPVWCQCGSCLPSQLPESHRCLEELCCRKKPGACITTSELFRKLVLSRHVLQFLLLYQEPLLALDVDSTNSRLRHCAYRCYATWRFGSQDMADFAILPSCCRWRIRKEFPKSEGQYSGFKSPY

As a reminder, the IC50 is the point on the concentration scale where inhibition reaches its midpoint.

Take `CC12CC3CC1(C)CC3(C(=O)NNc1ccccc1Cl)C2`: the IC50 on hP2X7R [1] was 18 nM. Also, the “increase in potency compared to UB-ALT-P30” value on hP2X7R [2] (Table 1 IC50 values) is listed as “two-fold increase in potency”. The ΔΔGexp on hP2X7R [2] (relative to UB-ALT-P30, from experimental pIC50 values, T = 298 K) was -0.59 ± 0.37 kcal/mol.

The values above are taken from publication PMC12436592 (Nature Communications, 2025).
